Protein sequences, listed by entry. Tags and fused reporters are not part of them. Residues count along the entry.
UniProt P12821, 30-658: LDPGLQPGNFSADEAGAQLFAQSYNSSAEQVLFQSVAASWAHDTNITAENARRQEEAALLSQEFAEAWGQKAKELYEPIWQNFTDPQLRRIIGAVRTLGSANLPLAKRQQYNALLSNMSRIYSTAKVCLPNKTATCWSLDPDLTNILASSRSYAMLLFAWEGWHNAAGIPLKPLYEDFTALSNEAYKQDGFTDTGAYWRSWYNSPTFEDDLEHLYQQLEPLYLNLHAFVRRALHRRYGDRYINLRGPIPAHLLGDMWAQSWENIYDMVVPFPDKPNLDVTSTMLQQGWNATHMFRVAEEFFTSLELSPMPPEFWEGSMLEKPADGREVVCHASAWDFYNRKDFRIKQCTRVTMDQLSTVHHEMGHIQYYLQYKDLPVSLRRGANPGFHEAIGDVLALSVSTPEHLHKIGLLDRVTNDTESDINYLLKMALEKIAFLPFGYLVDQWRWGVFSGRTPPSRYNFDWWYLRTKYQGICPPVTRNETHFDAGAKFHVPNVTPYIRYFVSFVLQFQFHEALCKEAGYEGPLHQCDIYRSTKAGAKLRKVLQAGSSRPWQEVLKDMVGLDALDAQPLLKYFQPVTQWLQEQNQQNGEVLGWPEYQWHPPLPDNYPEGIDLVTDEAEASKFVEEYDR
UniProt P12821, 30-1306 H988K/H992K: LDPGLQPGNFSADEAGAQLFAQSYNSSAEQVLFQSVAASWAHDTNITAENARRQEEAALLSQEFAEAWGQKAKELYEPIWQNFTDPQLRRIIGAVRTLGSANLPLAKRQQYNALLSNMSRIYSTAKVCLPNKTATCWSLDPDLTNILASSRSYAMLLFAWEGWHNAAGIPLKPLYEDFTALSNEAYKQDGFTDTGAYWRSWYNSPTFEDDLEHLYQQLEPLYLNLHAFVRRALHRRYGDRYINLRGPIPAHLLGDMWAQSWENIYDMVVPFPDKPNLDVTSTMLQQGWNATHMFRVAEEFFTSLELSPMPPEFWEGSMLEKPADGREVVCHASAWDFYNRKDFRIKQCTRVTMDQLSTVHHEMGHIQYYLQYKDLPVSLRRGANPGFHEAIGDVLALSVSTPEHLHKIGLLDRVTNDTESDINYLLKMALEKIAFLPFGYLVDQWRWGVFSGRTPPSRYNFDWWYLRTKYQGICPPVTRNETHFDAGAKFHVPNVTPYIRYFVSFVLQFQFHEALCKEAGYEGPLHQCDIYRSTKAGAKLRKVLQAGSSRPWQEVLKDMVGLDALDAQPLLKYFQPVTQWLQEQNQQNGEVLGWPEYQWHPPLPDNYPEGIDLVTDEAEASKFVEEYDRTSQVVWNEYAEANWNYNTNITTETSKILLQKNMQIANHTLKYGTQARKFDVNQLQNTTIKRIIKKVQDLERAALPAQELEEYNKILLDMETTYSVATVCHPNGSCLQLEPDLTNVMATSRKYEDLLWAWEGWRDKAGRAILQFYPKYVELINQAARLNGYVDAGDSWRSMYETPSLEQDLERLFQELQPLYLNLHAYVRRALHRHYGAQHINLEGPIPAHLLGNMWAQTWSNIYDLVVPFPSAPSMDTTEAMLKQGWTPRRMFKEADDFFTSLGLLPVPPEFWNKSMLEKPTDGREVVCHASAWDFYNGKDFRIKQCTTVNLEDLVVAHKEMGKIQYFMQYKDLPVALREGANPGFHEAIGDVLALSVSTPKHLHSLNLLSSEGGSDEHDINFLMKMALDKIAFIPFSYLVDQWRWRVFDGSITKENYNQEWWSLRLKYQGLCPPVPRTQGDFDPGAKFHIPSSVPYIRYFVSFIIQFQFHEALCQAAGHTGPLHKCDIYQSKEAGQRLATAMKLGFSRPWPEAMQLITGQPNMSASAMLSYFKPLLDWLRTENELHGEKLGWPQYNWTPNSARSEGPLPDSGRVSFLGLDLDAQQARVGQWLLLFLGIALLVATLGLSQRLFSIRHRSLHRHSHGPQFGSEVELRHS
UniProt P12821, 30-1306: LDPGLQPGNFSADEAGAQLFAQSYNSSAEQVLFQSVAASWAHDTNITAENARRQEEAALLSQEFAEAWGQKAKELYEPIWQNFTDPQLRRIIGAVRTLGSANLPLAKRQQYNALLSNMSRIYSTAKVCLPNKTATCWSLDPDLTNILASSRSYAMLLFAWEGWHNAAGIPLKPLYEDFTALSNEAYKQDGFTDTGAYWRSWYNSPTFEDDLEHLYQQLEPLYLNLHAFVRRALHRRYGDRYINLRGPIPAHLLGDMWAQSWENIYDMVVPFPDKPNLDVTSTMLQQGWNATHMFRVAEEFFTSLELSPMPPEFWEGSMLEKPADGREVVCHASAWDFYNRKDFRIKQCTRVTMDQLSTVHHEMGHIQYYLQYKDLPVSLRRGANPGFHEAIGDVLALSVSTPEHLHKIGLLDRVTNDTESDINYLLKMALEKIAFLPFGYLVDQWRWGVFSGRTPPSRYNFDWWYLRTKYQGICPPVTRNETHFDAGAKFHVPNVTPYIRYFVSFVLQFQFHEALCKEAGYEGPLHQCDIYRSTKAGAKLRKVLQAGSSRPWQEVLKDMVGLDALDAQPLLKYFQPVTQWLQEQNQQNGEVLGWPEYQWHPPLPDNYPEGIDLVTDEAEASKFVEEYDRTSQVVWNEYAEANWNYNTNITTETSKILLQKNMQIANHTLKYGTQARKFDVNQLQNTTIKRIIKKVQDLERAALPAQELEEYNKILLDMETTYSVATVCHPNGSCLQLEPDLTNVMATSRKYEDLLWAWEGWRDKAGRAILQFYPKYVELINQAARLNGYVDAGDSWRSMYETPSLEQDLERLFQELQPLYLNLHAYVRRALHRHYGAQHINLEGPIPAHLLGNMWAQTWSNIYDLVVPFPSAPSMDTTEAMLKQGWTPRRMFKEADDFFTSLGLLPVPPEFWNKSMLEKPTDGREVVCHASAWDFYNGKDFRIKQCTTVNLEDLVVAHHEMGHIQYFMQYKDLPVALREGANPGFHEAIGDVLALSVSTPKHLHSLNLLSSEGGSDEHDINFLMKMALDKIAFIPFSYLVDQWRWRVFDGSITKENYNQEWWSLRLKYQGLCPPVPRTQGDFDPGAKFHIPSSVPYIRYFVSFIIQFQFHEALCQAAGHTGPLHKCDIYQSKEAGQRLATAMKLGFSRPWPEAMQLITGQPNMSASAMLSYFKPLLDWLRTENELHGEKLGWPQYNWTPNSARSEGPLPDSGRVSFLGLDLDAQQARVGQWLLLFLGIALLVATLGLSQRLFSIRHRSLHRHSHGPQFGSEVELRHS
UniProt P12821, 30-1306 H390K/H394K: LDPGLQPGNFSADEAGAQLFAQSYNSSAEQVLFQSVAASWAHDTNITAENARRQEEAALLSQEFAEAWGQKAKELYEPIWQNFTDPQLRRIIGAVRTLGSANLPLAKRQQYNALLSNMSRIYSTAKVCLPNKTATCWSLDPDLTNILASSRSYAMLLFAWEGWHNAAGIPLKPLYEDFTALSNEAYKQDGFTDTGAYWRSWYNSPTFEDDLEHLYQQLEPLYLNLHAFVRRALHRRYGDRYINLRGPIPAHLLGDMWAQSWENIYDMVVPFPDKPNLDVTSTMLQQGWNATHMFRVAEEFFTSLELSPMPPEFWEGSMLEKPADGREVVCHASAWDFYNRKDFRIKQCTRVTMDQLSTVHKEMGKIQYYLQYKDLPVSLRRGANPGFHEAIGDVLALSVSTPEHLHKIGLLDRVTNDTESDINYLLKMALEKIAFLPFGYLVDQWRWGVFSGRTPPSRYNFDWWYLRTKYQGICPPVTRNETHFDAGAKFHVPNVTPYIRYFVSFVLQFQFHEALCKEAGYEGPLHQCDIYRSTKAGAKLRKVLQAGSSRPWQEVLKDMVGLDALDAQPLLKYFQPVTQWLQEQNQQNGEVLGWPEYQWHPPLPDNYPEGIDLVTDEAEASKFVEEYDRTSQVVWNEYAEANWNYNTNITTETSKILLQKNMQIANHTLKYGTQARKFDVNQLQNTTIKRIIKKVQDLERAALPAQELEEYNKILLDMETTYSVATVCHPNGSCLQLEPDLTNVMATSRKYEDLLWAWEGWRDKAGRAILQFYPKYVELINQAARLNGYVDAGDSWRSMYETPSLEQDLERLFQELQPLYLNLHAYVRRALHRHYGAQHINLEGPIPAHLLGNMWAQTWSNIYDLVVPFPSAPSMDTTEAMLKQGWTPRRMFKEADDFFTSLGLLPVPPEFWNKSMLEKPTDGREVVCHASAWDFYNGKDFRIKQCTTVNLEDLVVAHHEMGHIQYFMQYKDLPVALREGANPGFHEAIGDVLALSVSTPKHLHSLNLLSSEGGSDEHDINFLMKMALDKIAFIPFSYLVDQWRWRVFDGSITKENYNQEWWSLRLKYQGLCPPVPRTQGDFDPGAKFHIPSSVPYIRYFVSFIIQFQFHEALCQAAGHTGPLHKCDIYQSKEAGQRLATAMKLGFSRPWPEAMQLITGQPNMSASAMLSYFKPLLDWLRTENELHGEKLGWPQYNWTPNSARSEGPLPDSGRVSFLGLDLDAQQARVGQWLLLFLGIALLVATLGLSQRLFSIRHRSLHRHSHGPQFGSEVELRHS
UniProt P12821, 643-1222 limits assumed: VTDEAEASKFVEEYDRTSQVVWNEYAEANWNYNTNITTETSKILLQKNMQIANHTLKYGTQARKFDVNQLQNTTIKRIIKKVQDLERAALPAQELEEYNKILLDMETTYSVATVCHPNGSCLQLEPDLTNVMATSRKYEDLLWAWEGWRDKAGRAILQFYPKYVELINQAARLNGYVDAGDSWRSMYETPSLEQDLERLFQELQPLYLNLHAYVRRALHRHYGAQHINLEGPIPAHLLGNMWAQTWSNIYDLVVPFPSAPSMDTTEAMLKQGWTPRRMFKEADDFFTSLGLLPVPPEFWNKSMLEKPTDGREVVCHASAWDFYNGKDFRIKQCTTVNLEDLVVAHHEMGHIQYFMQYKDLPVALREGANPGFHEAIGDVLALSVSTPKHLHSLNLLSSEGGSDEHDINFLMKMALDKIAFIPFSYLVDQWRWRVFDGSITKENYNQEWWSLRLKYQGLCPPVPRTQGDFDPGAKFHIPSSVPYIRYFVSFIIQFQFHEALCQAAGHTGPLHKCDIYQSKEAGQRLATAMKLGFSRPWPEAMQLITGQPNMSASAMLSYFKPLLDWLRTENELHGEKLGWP

According to publication PMC4950319, “Kinetic and structural characterization of amyloid‐β peptide hydrolysis by human angiotensin‐1‐converting enzyme” (The Febs Journal, 2016):

Legend:
[1] = molecular target: T1, Ndom (soluble form of the N‐domain of sACE) (Homo sapiens, UniProt P12821); assay: Aβ(1–16) hydrolysis by Ndom, HPLC, Michaelis–Menten; type: biochemical; settings: 50 mM Hepes pH 7.5, 100 mM NaCl, 10 μM ZnSO4, substrate 0 to 45 μM, 15 min, 37 °C, enzyme 0.013 pmol, n = 3
T1 construct: made in house; host or cells: CHO cells
Experimental: (§1) ACE and Aβ(1–16) (H‐DAEFRHDSGYEVHHQK‐OH) (Bachem AG) hydrolysis assays were performed in reaction tubes and transferred to HPLC vials for analysis using the Agilent 1260 Infinity HPLC. Mixtures were separated on a Poroshell 120 EC‐18 column with a 2.7 μm pore size. The reaction consists of 25 μL substrate incubated with 25 μL enzyme for 15 min at 37 °C and was stopped with the addition of 10 μL of 0.25% trifluoroacetic acid (TFA). The total reaction (60 μL) was cleared of contaminants on a spin column (GHP Nanosep® MF Centrifugal Device 0.45 μm pore size) and run on the HPLC. Kinetic parameters were determined through the fitting of initial rates to the Michaelis–Menten equation with GRAPHPAD PRISM software (v 4.01, GraphPad Prism®).
(§2) Enzyme reactions were initiated on the addition of 25 μL enzyme (at a final concentration within 10% hydrolysis of total substrate; see Table 1) to 25 μL Aβ(1–16) in Hepes buffer (50 mM Hepes pH 7.5, 100 mM NaCl, 10 μM ZnSO4 buffer), ranging in concentration from 0 to 45 μM. The reaction was incubated for 15 min at 37 °C and stopped with the addition of 10 μL 0.25% TFA to make up a total volume of 60 μL. The reactions were performed in triplicate and 50 μL injections were analysed via HPLC (Agilent Technologies) across a gradient of 0.1% TFA and 2% ACN in water to 0.1% TFA, 95% ACN. A calibration curve was set up to convert the product peak area to picomoles product formed, through the complete hydrolysis of the substrate with the N‐domain. The initial rates of reactions were generated by converting and plotting the resultant peak product area, and were used to assess enzyme activity. Kinetic constants were calculated using the Michaelis–Menten method using GRAPHPAD PRISM software (v 4.01, GraphPad Prism®).
(§3) Statistical analysis of the data was determined by Student's t test. Differences with P < 0.05 were considered statistically significant. Fractional error was calculated for the k cat/K m ratio with the following equation: ΔZ=ZΔa/a^2+Δb/b^2 where Z represents the mean k cat/K m and ΔZ represents the fractional error. The Δa represents the SEM of the mean k cat (a). Similarly, Δb represents the SEM of the mean K m (b).

N‐sACE = molecular target: T2, N‐sACE (Homo sapiens, UniProt P12821, H988K/H992K); assay: Aβ(1–16) hydrolysis by N‐sACE, HPLC, Michaelis–Menten; type: biochemical
T2 construct: Both constructs have the complete signal, transmembrane and stalk region corresponding to full‐length sACE; made in house; host or cells: CHO cells; purified from cell lysate
Experimental: as §1, §2, §3

sACE [2] = molecular target: T3, sACE (Homo sapiens, UniProt P12821); assay: Aβ(1–16) hydrolysis by sACE, HPLC, Michaelis–Menten; type: biochemical; settings: 50 mM Hepes pH 7.5, 100 mM NaCl, 10 μM ZnSO4, substrate 0 to 45 μM, 15 min, 37 °C, enzyme 0.120 pmol, n = 3
T3 construct: made in house; host or cells: CHO cells; purified from cell lysate
Experimental: as §1, §2, §3

C‐sACE = molecular target: T4, C‐sACE (Homo sapiens, UniProt P12821, H390K/H394K); assay: Aβ(1–16) hydrolysis by C‐sACE, HPLC, Michaelis–Menten; type: biochemical; settings: 50 mM Hepes pH 7.5, 100 mM NaCl, 10 μM ZnSO4, substrate 0 to 45 μM, 15 min, 37 °C, enzyme 1.750 pmol, n = 3
T4 construct: Both constructs have the complete signal, transmembrane and stalk region corresponding to full‐length sACE; made in house; host or cells: CHO cells; purified from cell lysate
Experimental: as §1, §2, §3

CC‐sACE = assay: Aβ(1–16) hydrolysis by CC‐sACE, HPLC; type: biochemical, human; settings: Hepes pH 7.5, 37 °C, 15 min
Experimental: as §1
(§4) Enzyme reactions were initiated on the addition of 25 μL enzyme (at a final concentration within 10% hydrolysis of total substrate; see Table 1) to 25 μL Aβ(1–16) in Hepes buffer (50 mM Hepes pH 7.5, 100 mM NaCl, 10 μM ZnSO4 buffer), ranging in concentration from 0 to 45 μM. […] The reactions were performed in triplicate and 50 μL injections were analysed via HPLC (Agilent Technologies) across a gradient of 0.1% TFA and 2% ACN in water to 0.1% TFA, 95% ACN. […] Kinetic constants were calculated using the Michaelis–Menten method using GRAPHPAD PRISM software (v 4.01, GraphPad Prism®).
(§5) Statistical analysis of the data was determined by Student's t test. […]

[3] = molecular target: T5, Cdom (soluble form of the C‐domain of sACE) (Homo sapiens, UniProt P12821); assay: Aβ(1–16) hydrolysis by Cdom, HPLC; type: biochemical; settings: even after prolonged incubation times, Hepes pH 7.5, 37 °C
T5 construct: lacks the transmembrane region and unique 36 amino acid N terminus (and is therefore identical to the sACE C‐domain); made in house; host or cells: CHO cells
Experimental: as §1, §4, §5

ACE variants [4] = assay: Cleavage‐site analysis by MALDI‐TOF MS, kinetic assay conditions; type: biochemical, human; settings: MALDI‐TOF MS of products within kinetic assay conditions; Aβ(1–16): all ACE variants except Cdom; Aβ(4–10) peptides: Cdom and CC‐sACE not analysed
Experimental: To determine the bond at which the Aβ peptides were cleaved by the different ACE variants, each substrate was incubated under the stated assay conditions and the peptide products were purified for MALDI‐TOF MS analysis. For the Aβ(4–10)Q and Aβ(4–10)Y, peptides with m/z = 694.3 were identified (Table4). This corresponds to the N‐terminal o‐aminobenzoyl (Abz)‐FRHD peptide. Thus, both Aβ(4–10) peptides were endoproteolytically cleaved at the Asp7‐Ser8 bond. The Cdom and CC‐sACE cleavage sites were not analysed as there was negligible hydrolysis of the Aβ peptides by these ACE variants under kinetic assay conditions. […] These peptides correspond to the N terminus Aβ(1–14) (DAEFRHDSGYEVHH) with a calculated mass of 1698.7 (Table 4). […]
Kinetic reaction digests, 24 h digests and undigested Aβ(1–16) samples were collected off the HPLC, dried down with the Savant SpeedyVac (ThermoScientific, USA) and then resuspended in 50% acetonitrile (ACN) prior to being sent for mass spectrometry. […] The mass spectrometry was analysed at the Centre for Proteomic and Genomic Research (Cape Town, South Africa). […] Mass spectrometry was performed with a 4800 MALDI‐TOF/TOF (Applied Biosytems) with all spectra recorded in positive reflector mode. […]

ACE variants [5] = assay: Cleavage‐site analysis by MALDI‐TOF MS, 24 h digest of Aβ(1–16); type: biochemical, human
Experimental: To determine the bond at which the Aβ peptides were cleaved by the different ACE variants, each substrate was incubated under the stated assay conditions and the peptide products were purified for MALDI‐TOF MS analysis. For the Aβ(4–10)Q and Aβ(4–10)Y, peptides with m/z = 694.3 were identified (Table4). This corresponds to the N‐terminal o‐aminobenzoyl (Abz)‐FRHD peptide. Thus, both Aβ(4–10) peptides were endoproteolytically cleaved at the Asp7‐Ser8 bond. The Cdom and CC‐sACE cleavage sites were not analysed as there was negligible hydrolysis of the Aβ peptides by these ACE variants under kinetic assay conditions. Hydrolysis of Aβ(1–16) by all the ACE variants except Cdom yielded peptides with m/z ratios of 1698.6 (Ndom), 1698.7 (N‐sACE, C‐sACE, CC‐sACE) and 1698.8 (sACE) within kinetic assay parameters. These peptides correspond to the N terminus Aβ(1–14) (DAEFRHDSGYEVHH) with a calculated mass of 1698.7 (Table 4). […] To determine if the Aβ(1–16) is further degraded over time by all forms of ACE, 36.5 μM of Aβ(1–16) was incubated for 24 h (Table 5). […] The Aβ(1–12) product is probably hydrolysed faster by the Cdom, Ndom and wild‐type sACE. Overall, there appears to be no absolute domain preference for any specific P1 and P1′ residues, similar to the hydrolysis for 15 min.
Kinetic reaction digests, 24 h digests and undigested Aβ(1–16) samples were collected off the HPLC, dried down with the Savant SpeedyVac (ThermoScientific, USA) and then resuspended in 50% acetonitrile (ACN) prior to being sent for mass spectrometry. The Aβ(4–10)Q and Aβ(4–10)Y digested and undigested samples were cleaned over a C18 Zip Tip® (Millipore) and sent for mass spectrometry. The mass spectrometry was analysed at the Centre for Proteomic and Genomic Research (Cape Town, South Africa). Briefly, the collected peptides were spotted onto a 10 mg·mL^−1 α‐cyano‐4‐hydroxycinnamic acid matrix (Fluka, USA) in 80% ACN, 0.2% TFA for a final concentration of 5 mg·mL^−1 matrix in 40% ACN, 0.1% TFA, 10 mM NH4H2PO4. Mass spectrometry was performed with a 4800 MALDI‐TOF/TOF (Applied Biosytems) with all spectra recorded in positive reflector mode. Spectra were generated with 400 laser shots/spectrum at a laser intensity of 3800 (arbitrary units) with a grid voltage of 16 kV.

sACE [6] = molecular target: T3, sACE; assay: Interdomain cooperativity in hydrolysis of Aβ substrates; type: biochemical; settings: two domains of sACE, truncated and full‐length constructs compared
Experimental: as §1
Enzyme reactions were initiated on the addition of 25 μL enzyme (at a final concentration within 10% hydrolysis of total substrate; see Table 1) to 25 μL Aβ(1–16) in Hepes buffer (50 mM Hepes pH 7.5, 100 mM NaCl, 10 μM ZnSO4 buffer), ranging in concentration from 0 to 45 μM. […] The reactions were performed in triplicate and 50 μL injections were analysed via HPLC (Agilent Technologies) across a gradient of 0.1% TFA and 2% ACN in water to 0.1% TFA, 95% ACN. […] Kinetic constants were calculated using the Michaelis–Menten method using GRAPHPAD PRISM software (v 4.01, GraphPad Prism®). […]

[7] = mean ± fractional error of the ratio
[8] = HPLC, 50 mM Hepes pH 7.5, 100 mM NaCl, 10 μM ZnSO4, substrate 0 to 45 μM, 15 min, 37 °C, enzyme 0.050 pmol, mean ± SEM, n = 3

H‐DAEFRHDSGYEVHHQK‐OH [Aβ(1–16), amyloid beta peptide 1–16 (Bachem AG; Sigma SCP0052 for crystallography)]
K m ([1]; mean ± SEM): 21.35 ± 0.21 µM
V max ([1]; mean ± SEM): 0.49 ± 0.02
k cat ([1]; mean ± SEM): 39.30 ± 0.47 s⁻¹
k cat/K m [1, 7]: 18.46 M^−1·s^−1 × 10^5 and 18.46 ± 0.72 M^−1·s^−1 × 10^5
K m (N‐sACE; [8]): 34.20 ± 5.90 µM
V max (N‐sACE; [8]): 0.55 ± 0.08
k cat (N‐sACE; [8]): 11.03 ± 1.62 s⁻¹
k cat/K m (N‐sACE; HPLC, 50 mM Hepes pH 7.5, 100 mM NaCl, 10 μM ZnSO4, substrate 0 to 45 μM, 15 min, 37 °C, enzyme 0.050 pmol, mean ± fractional error of the ratio, n = 3): 3.21 ± 0.72 M^−1·s^−1 × 10^5
k cat/K m for N‐sACE, fold lower than that for Ndom (N‐sACE; N‐sACE versus Ndom, P < 0.05): 6 fold
K m (sACE [2]; mean ± SEM): 35.20 ± 4.03 µM
V max (sACE [2]; mean ± SEM): 1.00 ± 0.19
k cat (sACE [2]; mean ± SEM): 8.37 ± 0.90 s⁻¹
k cat/K m (sACE [2]; [7]): 2.36 ± 0.37 M^−1·s^−1 × 10^5
K m (C‐sACE; mean ± SEM): 42.36 ± 9.57 µM
V max (C‐sACE; mean ± SEM): 1.15 ± 0.14
k cat (C‐sACE; mean ± SEM): 0.67 ± 0.08 s⁻¹
k cat/K m (C‐sACE; [7]): 0.17 ± 0.04 M^−1·s^−1 × 10^5
hydrolysis by CC‐sACE (CC‐sACE): the rate was too slow to generate accurate kinetic constants
hydrolysis by truncated Cdom [3]: not hydrolysed
cleavage site (bond) (ACE variants [4]): His14‐Gln15
Aβ(1–7) cleavage site (ACE variants [5]; 36.5 μM Aβ(1–16)): found across constructs barring N‐sACE and CC‐sACE
C‐terminal product Aβ(12–16) (ACE variants [5]; 36.5 μM Aβ(1–16)): detected in both Cdom and Ndom digests as well as in sACE and C‐sACE, but not N‐sACE or CC‐sACE
initial cleavage intermediate Aβ(1–14) (ACE variants [5]; 36.5 μM Aβ(1–16)): present across all ACE constructs except for N‐sACE
hydrolysis at His6‐Asp7 (ACE variants [5]; Aβ(1–16)): only seen after a 24 h incubation with C‐sACE
interdomain cooperativity (sACE [6]): negative

Where “and” joins values, the source holds several entries; their conditions need not be identical. Equal entries are not always repeated.
